Reference: PubChem BioAssay AID588590 (National Center for Advancing Translational Sciences (NCATS), 2011)
The entries are a selection whose mix differs from that of the whole data set. Results filed as inconclusive are left out. A call without a number means that no potency is given here. Active and inactive are the calls of the source. The call rests on the fitted dose curve; in most records, active means well fitted inhibition curve with a large enough effect; inconclusive means small, poorly fitted or top-dose-only effect, or another doubt; inactive means no such curve, though single readings can be large or run the other way.

Protein sequences, listed by entry. Tags and fused reporters are not part of them. Lines headed by an entry give the natural chain unless they say otherwise; changes in a name come on top.
UniProt Q9UNA4: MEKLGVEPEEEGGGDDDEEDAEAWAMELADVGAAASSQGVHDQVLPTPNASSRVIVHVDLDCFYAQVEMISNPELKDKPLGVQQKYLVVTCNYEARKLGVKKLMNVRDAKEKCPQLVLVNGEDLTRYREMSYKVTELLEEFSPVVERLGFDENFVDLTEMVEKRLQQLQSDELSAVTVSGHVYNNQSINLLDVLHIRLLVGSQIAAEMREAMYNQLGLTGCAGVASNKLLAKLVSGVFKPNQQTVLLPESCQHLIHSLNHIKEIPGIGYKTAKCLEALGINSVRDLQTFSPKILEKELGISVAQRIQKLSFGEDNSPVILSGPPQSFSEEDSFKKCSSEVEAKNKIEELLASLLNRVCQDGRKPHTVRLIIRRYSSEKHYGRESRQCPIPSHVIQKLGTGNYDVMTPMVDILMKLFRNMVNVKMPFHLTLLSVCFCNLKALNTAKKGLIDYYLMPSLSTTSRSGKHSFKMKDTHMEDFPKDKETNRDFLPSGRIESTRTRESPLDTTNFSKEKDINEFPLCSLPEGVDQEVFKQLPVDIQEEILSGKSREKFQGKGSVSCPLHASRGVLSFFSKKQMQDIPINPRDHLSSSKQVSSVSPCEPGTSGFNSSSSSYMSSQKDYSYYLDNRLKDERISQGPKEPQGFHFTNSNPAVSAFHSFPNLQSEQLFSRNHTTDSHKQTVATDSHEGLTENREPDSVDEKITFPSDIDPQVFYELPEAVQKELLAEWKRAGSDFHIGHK

molecular target: DNA polymerase iota (Homo sapiens) (UniProt Q9UNA4); test: qHTS for Inhibitors of Polymerase Iota; conditions: Pol iota fluorescent replication assay, 10 min; series mostly up to 115 µM

| SMILES | Potency |
| --- | --- |
| CCOC(=O)c1ccc(NC(=O)C(C)(CCl)SC)cc1 (stereo unspecified) | inactive |
| O=C(OC1CN2CCC1CC2)c1cccc([N+](=O)[O-])c1 (stereo unspecified) | inactive |
| CCOP(=O)(Nc1cccc2cccnc12)OCC | inactive |
| CCC(C)N(CC(C)C)C(=S)SC(NC(C)=O)C(Cl)(Cl)Cl (stereo unspecified) | inactive |
| COP1(=S)c2c(C)nn(CCC#N)c2N=C(c2ccc(F)cc2)N1C (stereo unspecified) | inactive |
| O=C(COc1ccccc1)OC1CN2CCC1CC2 (stereo unspecified) | inactive |
| O=C(Nc1ccncc1[N+](=O)[O-])c1ccc([N+](=O)[O-])cc1[N+](=O)[O-] | inactive |
| CCOC(=O)Nc1cccc([As](=O)(O)O)c1 | inactive |
| O=[N+]([O-])c1ccc(Nc2ccc(Oc3ccc([N+](=O)[O-])cc3[N+](=O)[O-])cc2)c([N+](=O)[O-])c1 | inactive |
| O=P(Nc1ccccn1)(c1cccc2ccccc12)c1cccc2ccccc12 | inactive |
| Cc1cc(SC(NC=O)C(Cl)(Cl)Cl)ncn1 (stereo unspecified) | inactive |
| CC1CCNP(=O)(N(CCCl)CCCl)O1 (stereo unspecified) | inactive |
| CCOC(=O)Nc1ccc([As](=O)(O)O)c(O)c1 | inactive |
| CCCCOc1ccc(C(=O)NCC2(N3CCCCC3)CCCCC2)cc1OC | inactive |
| Cc1cc(SC(NC(=O)c2ccccc2)C(Cl)(Cl)Cl)nc(C(C)C)n1 (stereo unspecified) | inactive |
| CC(C)c1ccc(OP(=O)(Nc2ccccn2)Oc2ccccc2F)cc1 (stereo unspecified) | inactive |
| COC(=O)C1(C)COP(=O)(N2CCCCCC2)OC1 (stereo unspecified) | inactive |
| O=Cc1ccc(NCCCl)cc1 | inactive |
| ClCCSc1nnc(-c2cccnc2)o1 | inactive |
| O=C(OC1CN2CCC1CC2)c1cccc2[nH]cnc12 (stereo unspecified) | inactive |
| CCN(CC)C(=S)SC(NC=O)C(Cl)(Cl)Cl (stereo unspecified) | inactive |
| CC(C)NC(=O)NP(=O)(Oc1ccccc1)Oc1ccccc1 | inactive |
| COc1cc(C(=O)NCC2(N3CCOCC3)CCCCC2)ccc1OCC(C)C | inactive |
| O=[N+]([O-])c1ccc(-c2cc([N+](=O)[O-])c(O)c([N+](=O)[O-])c2)cc1 | inactive |
| Cc1ccc(OP(=O)(Nc2ccc([N+](=O)[O-])cn2)Oc2ccc(C)cc2)cc1 | inactive |
| COc1ccc(N/C(=N/P(=O)(N2CCOCC2)N2CCOCC2)N2CCOCC2)cc1 | inactive |

| SMILES | Potency |
| --- | --- |
| O=[N+]([O-])c1cc(Oc2ccc([N+](=O)[O-])cc2C(F)(F)F)cc([N+](=O)[O-])c1 | inactive |
| O=C(OC1CN2CCC1CC2)C12CC3CC(CC(C3)C1)C2 (stereo unspecified) | inactive |
| Cc1cc(=O)[nH]c(N[N+](=O)[O-])n1 | inactive |
| Cc1c2c(nc3ccccc13)SC(C(Cl)Cl)C2 (stereo unspecified) | inactive |
| COc1ccc2nc(NP(=O)(c3ccccc3)c3ccccc3)sc2c1 | inactive |
| COc1cc(I)ccc1[As](=O)(O)O | inactive |
| O=P1(N(CCCl)CCCl)OCCCN1CCCl (stereo unspecified) | inactive |
| O=P1(N(CCCl)CCCl)Nc2ccccc2N1 | inactive |
| CCCOP(=S)(Nc1nc(N)cc(=O)[nH]1)OCCC | inactive |
| COc1cc(C2NCCC3(OCCO3)C2(C)C)cc(OC)c1OC (stereo unspecified) | inactive |
| CCOP(=O)(Nc1cccc2ccccc12)OCC | inactive |
| COc1cc(C(=O)NCC2(N3CCOCC3)CCCCC2)cc(Cl)c1OC(C)C | inactive |
| O=[As](O)(O)c1cccnc1 | inactive |
| CS(=O)(=O)c1ccc(Cl)c(NC(=O)COC(=O)C(O)(c2ccccc2)c2ccccc2)c1 | inactive |
| O=C(OC1CN2CCC1CC2)c1ccc(Cl)cc1 (stereo unspecified) | inactive |
| CN(C(=O)Cc1ccc(Cl)c(Cl)c1)[C@@H]1CC[C@]2(CCCO2)C[C@H]1N1CCCC1 | inactive |
| O=[As](O)(c1cccc(O)c1)c1cccc(O)c1 | inactive |
| Cc1cccc(OCC(=O)OC2CN3CCC2CC3)c1 (stereo unspecified) | inactive |
| NC(=O)Nc1ccc([As](=O)(O)O)cc1 | inactive |
| CN(C(=O)Cc1ccc(Cl)c(Cl)c1)[C@H]1CC[C@@]2(CCCO2)C[C@@H]1N1CCCC1 | inactive |
| N#CCCN(C(=O)COC(=O)C(O)(c1ccccc1)c1ccccc1)c1ccc(F)cc1 | inactive |
| CCOP1(=S)c2c(C)nn(CCC#N)c2N=C(c2ccc(F)cc2)N1C (stereo unspecified) | inactive |
| CN(C(=O)Cc1ccccc1)[C@@H]1CC[C@]2(CCCO2)C[C@H]1N1CCCC1 | inactive |
| CCOP1(=S)c2c(C)nn(CCC#N)c2N=C(c2ccccc2F)N1C (stereo unspecified) | inactive |
| O=P(Nc1nccs1)(Oc1ccccc1)Oc1ccccc1 | inactive |
| Nc1ccccc1[As](=O)(O)c1ccccc1 | inactive |

| SMILES | Potency |
| --- | --- |
| O=P1(Nc2ncccn2)COc2ccccc2OC1 | inactive |
| O=P1(Nc2ccc(Br)cn2)COc2ccccc2OC1 | inactive |
| NS(=O)(=O)c1cccc(NC(=O)COC(=O)C(O)(c2ccccc2)c2ccccc2)c1 | inactive |
| O=[As](O)(c1cccs1)c1cccs1 | inactive |
| Cc1ccc(OCC(=O)OC2CN3CCC2CC3)cc1 (stereo unspecified) | inactive |
| Nc1cccc([As](=O)(O)c2ccccc2)c1 | inactive |
| Cc1nn(-c2ccccc2)c2c1P(=O)(N1CCOCC1)N(C)C(c1ccccc1)=N2 (stereo unspecified) | inactive |
| COc1cc([N+](=O)[O-])ccc1[N+](=O)[O-] | inactive |
| CC1CCC(C(C)C)C(OP(=O)(Nc2ccccn2)c2ccccc2)C1 (stereo unspecified) | inactive |
| Cc1ccc(C(=O)OC2CN3CCC2CC3)cc1 (stereo unspecified) | inactive |
| O=C(/C=C/c1ccccc1)OC1CN2CCC1CC2 (stereo unspecified) | inactive |
| CCCC1OP(=O)(Nc2ccccc2)OCC1CC (stereo unspecified) | inactive |
| CN(C)C1(CNC(=O)c2ccc(S(C)(=O)=O)cc2)CCCCC1 | inactive |
| COc1ccccc1CNC(=O)COC(=O)C(O)(c1ccccc1)c1ccccc1 | inactive |
| CC1(CBr)Cn2c(nc3ccccc3c2=O)S1 (stereo unspecified) | inactive |
| CC(C)/C=N\N=C(\N)N[N+](=O)[O-] | inactive |
| CN(C(=O)Cc1ccc(Cl)c(Cl)c1)[C@@H]1CCCC[C@H]1N1CCCC1 | inactive |
| CN(CCCl)Cc1cc(Cl)c(NC2=NCCN2)c(Cl)c1 | inactive |
| CCOP(=O)(Nc1ccc(C)cn1)OCC | inactive |
| O=P1(Nc2ccccn2)COc2ccccc2OC1 | inactive |
| CCC1=CC2Cc3nc4ccc(Cl)cc4c(N)c3C(C1)C2 (stereo unspecified) | inactive |
| CCOP(=O)(NC(=NC(C)c1ccccc1)NC(C)c1ccccc1)OCC (stereo unspecified) | inactive |
| Clc1n[nH]nc1-c1nn[nH][15n]1 | inactive |
| CC(C)(C)C(=O)NC(Sc1ncccn1)C(Cl)(Cl)Cl (stereo unspecified) | inactive |
